Reference: PMC3794980, “Identification of Conserved and HLA Promiscuous DENV3 T-Cell Epitopes” (PLoS Neglected Tropical Diseases, 2013)
Read-outs that look alike come from different tables or passages of the source.

Tests used:
Assay in all cases: biochemical
Assay type in all cases: binding
DRB1*0701 = DRB1*0701 (Homo sapiens, UniProt P01903+P01911, A100R/A102G/A103Q/D57E/D86V/E43K/F76Y/K127E/L162R/M171V/P40G/Q125H/Q99D/R33Q/R42Y/R54Q/S133A/S66F/T210M/V115G/Y107V/Y59L/Y89S)
DRB1*1101 = DRB1*1101 (Homo sapiens, UniProt P01903+P01911, A100R/A169T/A87E/I96F/K41T/L162R/M171V/P40S/Q125H/Q178H/Q39Y/Q99D/R42S/S66Y/T262R/V115G/W38E)
DRB1*0901 = DRB1*0901 (Homo sapiens, UniProt P01903+P01911, A100R/A103E/D57H/D86V/F55Y/F60I/F76Y/I96F/K127E/L162R/M171V/P40D/Q125H/Q99R/R33Q/R42F/S133A/S66N/T210M/V115G/W38K/Y107V/Y59G/Y89S)
DRB1*1501 = DRB1*1501 (Homo sapiens, UniProt P01903+P01911)
DRB1*1302 = DRB1*1302 (Homo sapiens, UniProt P01903+P01911, A100E/A169T/K41T/L162R/M171V/P40S/Q125H/Q178H/Q39Y/Q99D/R42S/S66N/T262R/V115G/W38E/Y61H)
DRB1*0802 = DRB1*0802 (Homo sapiens, UniProt P01903+P01911, A100R/A103L/A169T/F76Y/H45Y/I96F/K41T/L162R/M171V/P40S/Q125H/Q178H/Q39Y/Q99D/R218S/R42G/S66Y/V115G/W38E)
DRB1*0301 = DRB1*0301 (Homo sapiens, UniProt P01903+P01911, A100K/A102G/A103R/A169T/F55Y/I96L/K41T/L162R/M171V/P40S/Q125H/Q178H/Q39Y/R42S/S66N/T106N/T262R/W38E/Y61H)

| SMILES | IC50 (DRB1*0701) | IC50 (DRB1*1101) | IC50 (DRB1*0901) | IC50 (DRB1*1501) | IC50 (DRB1*1302) | IC50 (DRB1*0802) | IC50 (DRB1*0301) | IC50 (DRB1*0901; competitive inhibition of radiolabeled standard peptide, DRB1*0901, read-out: Binding Affinity (nM) DRB1*0901) | IC50 (DRB1*1302; competitive inhibition of radiolabeled standard peptide, DRB1*1302, read-out: Binding Affinity (nM) DRB1*1302) |
| --- | --- | --- | --- | --- | --- | --- | --- | --- | --- |
| CC[C@H](C)[C@H](NC(=O)[C@H](CCC(N)=O)NC(=O)[C@@H](N)CCCCN)C(=O)N[C@@H](C)C(=O)N[C@@H](CC(N)=O)C(=O)N[C@@H](CCC(=O)O)C(=O)N[C@@H](CC(C)C)C(=O)N[C@@H](CC(N)=O)C(=O)N[C@@H](Cc1ccc(O)cc1)C(=O)N[C@H](C(=O)N[C@@H](CC(C)C)C(=O)N[C@@H](Cc1c[nH]c2ccccc12)C(=O)N[C@@H](CCC(=O)O)C(=O)N[C@@H](CC(N)=O)C(=O)N[C@@H](CC(N)=O)C(=O)O)[C@@H](C)CC [NS1 69-83] | 4480 nM | 19000 nM | 2410 nM | – | – | – | – | – | – |
| CC[C@H](C)[C@H](NC(=O)[C@H](CCCNC(=N)N)NC(=O)[C@H](CCCCN)NC(=O)[C@@H](NC(=O)[C@H](CCCNC(=N)N)NC(=O)[C@H](CCC(=O)O)NC(=O)CNC(=O)[C@@H](NC(=O)[C@@H](NC(=O)[C@H](CC(=O)O)NC(=O)[C@H](CCSC)NC(=O)[C@H](CC(N)=O)NC(=O)[C@@H]1CCCN1C(=O)[C@@H](NC(=O)[C@H](CCC(=O)O)NC(=O)[C@@H]1CCCN1)[C@@H](C)O)C(C)C)[C@@H](C)CC)[C@@H](C)CC)C(=O)N[C@@H](CCCCN)C(=O)O [NS5 268-284] | 1000 nM | – | 8240 nM | 1820 nM | 338 nM | – | – | – | – |
| CSCC[C@H](NC(=O)[C@H](C)NC(=O)[C@H](CCSC)NC(=O)[C@H](CCC(N)=O)NC(=O)[C@@H](NC(=O)[C@@H](NC(=O)[C@@H](N)CCSC)C(C)C)[C@@H](C)O)C(=O)N[C@H](C(=O)N[C@@H](CC(=O)O)C(=O)N[C@H](C(=O)N[C@H](C(=O)N1CCC[C@H]1C(=O)N[C@@H](Cc1ccccc1)C(=O)NCC(=O)N[C@@H](CCC(N)=O)C(=O)N[C@@H](CCC(N)=O)C(=O)N[C@@H](CCCNC(=N)N)C(=O)O)[C@@H](C)O)[C@@H](C)O)[C@@H](C)O [NS5 336-352] | – | 3130 nM | – | 2200 nM | – | 121 nM | – | – | – |
| CC[C@H](C)[C@H](NC(=O)[C@@H](N)CCCCN)C(=O)N1CCC[C@H]1C(=O)NCC(=O)NCC(=O)N[C@@H](C)C(=O)N[C@@H](CCSC)C(=O)N[C@@H](Cc1ccc(O)cc1)C(=O)N[C@@H](C)C(=O)N[C@@H](CC(=O)O)C(=O)N[C@@H](CC(=O)O)C(=O)N[C@H](C(=O)N[C@@H](C)C(=O)NCC(=O)N[C@@H](Cc1c[nH]c2ccccc12)C(=O)N[C@@H](CC(=O)O)C(=O)N[C@H](C(=O)O)[C@@H](C)O)[C@@H](C)O [NS5 523-539] | – | 170 nM | – | – | – | – | – | – | – |
| CC[C@H](C)[C@H](NC(=O)[C@H](C)NC(=O)[C@H](CCSC)NC(=O)[C@H](CCCNC(=N)N)NC(=O)[C@H](CCCCN)NC(=O)[C@H](CC(C)C)NC(=O)[C@H](CCCNC(=N)N)NC(=O)[C@H](CCC(=O)O)NC(=O)[C@@H](N)C(C)C)C(=O)N[C@@H](CO)C(=O)NCC(=O)N[C@@H](CC(=O)O)C(=O)N[C@@H](CC(=O)O)C(=O)N[C@@H](CS)C(=O)N[C@H](C(=O)N[C@H](C(=O)N[C@@H](CCCCN)C(=O)O)C(C)C)C(C)C [NS5 652-668] | – | – | 1270 nM | 558 nM | – | 1410 nM | 335 nM | – | – |
| CC[C@H](C)[C@H](N)C(=O)N[C@@H](CC(=O)O)C(=O)N[C@@H](CC(=O)O)C(=O)N[C@@H](CCCNC(=N)N)C(=O)N[C@@H](Cc1ccccc1)C(=O)N[C@@H](C)C(=O)N[C@@H](CC(N)=O)C(=O)N[C@@H](C)C(=O)N[C@@H](CC(C)C)C(=O)N[C@@H](CC(C)C)C(=O)N[C@@H](C)C(=O)N[C@@H](CC(C)C)C(=O)N[C@@H](CC(N)=O)C(=O)N[C@@H](CC(=O)O)C(=O)N[C@@H](CCSC)C(=O)NCC(=O)N[C@@H](CCCCN)C(=O)O [NS5 670-686] | 2220 nM | – | – | – | – | – | 8490 nM | 1990 nM | 2080 nM |
